Data taken from article PMC5015106 (Scientific Reports, 2016).
Read-outs that look alike come from different tables or passages of the source.

Amino acid sequences for entries named in this document (tags omitted). Residues count along the entry.
UniProt Q96IY4, 115-423 limits assumed: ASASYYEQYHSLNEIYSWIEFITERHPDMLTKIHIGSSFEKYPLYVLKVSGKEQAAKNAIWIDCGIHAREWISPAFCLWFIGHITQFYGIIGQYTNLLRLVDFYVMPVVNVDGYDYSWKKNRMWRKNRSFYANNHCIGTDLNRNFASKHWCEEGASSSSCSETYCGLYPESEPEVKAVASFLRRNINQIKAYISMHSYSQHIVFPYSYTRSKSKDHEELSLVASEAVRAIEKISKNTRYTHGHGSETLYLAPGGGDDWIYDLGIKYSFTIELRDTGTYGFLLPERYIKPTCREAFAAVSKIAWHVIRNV

Legend:
TAFIa [1] = target: T1, TAFIa (Homo sapiens, UniProt Q96IY4); assay: TAFIa enzymatic inhibition assay (Actichrome plasma TAFIa activity kit); format: biochemical; conditions: read-out: IC50 in nM against TAFIa, duplicate determination
TAFIa [2] = target: T1, TAFIa; conditions: read-out: IC50 against TAFIa; enzymatic assay; cited from earlier work

With `CC[C@@H](C)[C@@H]1NC(=O)[C@H](NC(=O)N[C@@H](Cc2ccc(O)cc2)C(=O)O)CCCCNC(=O)[C@H](Cc2ccccc2)NC(=O)[C@H](C)N(C)C(=O)[C@H](CCc2ccc(O)cc2)NC1=O` the IC50 (TAFIa [1]) was 400 nM.

In the case of `CC(C)[C@@H]1NC(=O)[C@H](NC(=O)N[C@@H](CCCNC(=N)N)C(=O)O)CCCCNC(=O)[C@H](Cc2ccccc2)NC(=O)[C@H](C)N(C)C(=O)[C@H](CCc2ccc(O)cc2)NC1=O` [Compound 1, Anabaenopeptin B], the IC50 (TAFIa [2]) is given as 1.5 nM.

For `CC(C)C1NC(=O)C(NC(=O)NC(CCCCN)C(=O)O)CCCCNC(=O)C(Cc2ccccc2)NC(=O)C(C)N(C)C(=O)C(CCc2ccc(O)cc2)NC1=O` (centres unmarked) [Compound 2, Anabaenopeptin C], the IC50 (TAFIa [1]) is listed as 1.9 nM and the IC50 (TAFIa [2]) is listed as 1.9 nM.

In the case of `CC[C@H](C)[C@@H]1NC(=O)[C@H](NC(=O)N[C@@H](CCCNC(=N)N)C(=O)O)CCCCNC(=O)[C@H](Cc2ccccc2)NC(=O)[C@H](C)N(C)C(=O)[C@H](CCc2ccc(O)cc2)NC1=O` [Compound 3, Anabaenopeptin F], the IC50 (TAFIa [2]) is given as 1.5 nM.
